Experimental findings from PubChem BioAssay (EPA / NIEHS) are described below.

Amino acid sequences for entries named in this document (tags omitted). A change or cut given only in a name is not applied to a line headed by its entry.
UniProt P10415, whole entry, looked up: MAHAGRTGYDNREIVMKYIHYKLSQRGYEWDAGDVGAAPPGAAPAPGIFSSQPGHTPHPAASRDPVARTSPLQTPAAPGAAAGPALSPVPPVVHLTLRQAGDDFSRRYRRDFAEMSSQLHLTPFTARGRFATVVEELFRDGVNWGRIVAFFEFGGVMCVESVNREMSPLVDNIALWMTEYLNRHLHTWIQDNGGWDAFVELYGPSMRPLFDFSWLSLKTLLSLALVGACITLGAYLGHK
UniProt P42574: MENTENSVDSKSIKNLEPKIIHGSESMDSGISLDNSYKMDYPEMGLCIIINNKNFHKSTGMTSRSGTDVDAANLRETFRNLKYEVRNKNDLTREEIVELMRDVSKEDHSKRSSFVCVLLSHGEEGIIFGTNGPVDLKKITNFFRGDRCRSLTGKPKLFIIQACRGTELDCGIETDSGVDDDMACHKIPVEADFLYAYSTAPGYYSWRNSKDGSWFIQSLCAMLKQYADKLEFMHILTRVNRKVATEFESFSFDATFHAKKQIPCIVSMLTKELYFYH

What all share (conditions): actives raise or lower the signal; mRNA level, 48 h
Read-out in assay [1]: Alpha-fetoprotein (AFP) gene, AFP (gene 174)
Put plainly: LTEA_HepaRG_AFP: Life Technologies and Expression Analysis (LTEA) Assay for Alpha-fetoprotein (AFP) gene using HepaRG (AID 2283472). A digest of the protocol: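 HepaRG, single lot; 48 h post-plating -> serum-free induction medium; cpd 8-pt, 100 uM top, half-log, 0.5% DMSO, duplicate, 48 h. RNA -> qRT-PCR AFP, norm ACTB/GAPDH/POLR2A. Bidirectional fit vs DMSO.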

Read-out in assay [2]: Apolipoprotein A-V (APOA5) gene, APOA5 (gene 116519)
Put plainly: LTEA_HepaRG_APOA5: Life Technologies and Expression Analysis (LTEA) Assay for Apolipoprotein A-V (APOA5) gene using HepaRG (AID 2283474). An outline of the steps: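 HepaRG, 48 h chemical exposure in serum-free induction medium, 8-pt half-log series (top 100 uM), 0.5% DMSO vehicle, duplicates. Readout: APOA5 mRNA by qRT-PCR, housekeeping-normalized; bidirectional fit vs DMSO baseline.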

Read-out in assay [3]: Apoptosis regulator Bcl-2 (Homo sapiens) (UniProt P10415)
Put plainly: LTEA_HepaRG_BCL2: Life Technologies and Expression Analysis (LTEA) Assay for Bcl-2 gene using HepaRG (AID 2283475). A digest of the protocol:
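HepaRG, plated 48 h then switched to serum-free induction medium; dosed 48 h, 8 conc. (max 100 uM, half-log steps), duplicate, 0.5% DMSO. Lysis in RLT, RNA isolated, TaqMan qRT-PCR for BCL2; ACTB/GAPDH/POLR2A normalisation; bidirectional fit vs DMSO.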

Read-out in assay [4]: Bcl-2 (BID) gene, BID (gene 637)
As to the kind of experiment: LTEA_HepaRG_BID: Life Technologies and Expression Analysis (LTEA) Assay for Bcl-2 (BID) gene using HepaRG (AID 2283476). An outline of the steps: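 Transcript levels of BID, measured by qRT-PCR and normalized to three housekeeping genes, were fitted bidirectionally against DMSO controls. Cells were HepaRG, dosed 48 h at up to 100 uM.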

Read-out in assay [5]: Cytochrome P450 (CYP24A1), CYP24A1 (gene 1591)
As to the kind of experiment: LTEA_HepaRG_CYP24A1: Life Technologies and Expression Analysis (LTEA) Assay for Cytochrome P450 (CYP24A1) using HepaRG (AID 2283478). As to the method:
(§1) LTEA_HepaRG is a cell based, multiplexed-readout assay that uses HepaRG, a human liver cell line, with measurements taken at 48 hours after chemical dosing on a 96-well plate.LTEA_HepaRG_CYP24A1 is one of 102 assay component(s) measured in the LTEA HepaRG cell culture assay. It is a marker of NR mediated metabolism.Data from the assay component LTEA_HepaRG_CYP24A1 was analyzed into 1 endpoint. This assay endpoint, LTEA_HepaRG_CYP24A1, was analyzed with bidirectional fitting relative to DMSO as the negative control and baseline of activity. Using a type of inducible reporter, measures of mRNA induction for gain or loss-of-signal activity can be used to understand regulation of transcription factor activity. To generalize the intended target to other relatable targets, this assay endpoint is annotated to the cyp intended target family, where the subfamily is xenobiotic metabolism.
(§2) A total of 1060 chemcials from the ToxCast library were tested in eight-point concentration-response experiments. Cell culture and cytotoxicity assays were conducted at Thermo Fisher Scientific's Custom Services facility (Madison, WI). A single lot of human HepaRG cells (Thermo Fisher Scientific, Frederick, MD) was used for the cell culture experiments. 96-well format collagen type I coated plates of human HepaRG cells were prepared using established methods. Briefly, cryopreserved HepaRG cells were thawed, plated at a density of approximately 100,000 cells/well in HepaRG Thaw, Plate, and General Purpose media (HPRG770, Thermo Fisher Scientific), and incubated for 48 hours. 0.5% DMSO was selected as vehicle control to balance the requisite need of DMSO in HepaRG cultures to maintain differentiation (for example, baseline metabolism, proportions of hepatocytes vs. cholangiocytes), while enabling further hepatic receptor pathway activation (for example, PXR and CAR) in response to chemical exposure. 48 hours after plating, the culture medium was replaced with HepaRG Serum-Free Incudtion Media. Cells were exposed to each test chemical in duplicate and maintained in CO2 incubators for another 48 hours. Chemical plates were thawed to room temperature and 200x concentrations of treatment groups were prepared. 8-point conentration-reponse curves were made with the highest exposure at 100 uM, followed by half-log dilutions, all in 0.5% DMSO. […] Fluidigm's 96.96 Dynamic ArrayTM (Fluidigm, Amsterdam, the Netherlands) technology was used for gene expression analyses by quantitative reverse transcription polymerase chain reaction (qRT-PCR, performed by Quintiles/Expression Analysis, Durham, NC)89. […]

Read-out in assay [6]: Cytochrome P450 (CYP1A2), CYP1A2 (gene 1544)
Put plainly: LTEA_HepaRG_CYP1A2: Life Technologies and Expression Analysis (LTEA) Assay for Cytochrome P450 (CYP1A2) using HepaRG (AID 2283479). An outline of the steps:
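HepaRG, 48 h exposure, top 100 uM, half-log 8-pt, 0.5% DMSO vehicle, duplicates. Readout: TaqMan qRT-PCR of CYP1A2 mRNA, housekeeping-normalized (ACTB/GAPDH/POLR2A). Gain/loss fit relative to DMSO baseline.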

Read-out in assay [7]: cysteine-aspartic acid protease (CASP8), CASP8 (gene 841)
Put plainly: LTEA_HepaRG_CASP8: Life Technologies and Expression Analysis (LTEA) Assay for cysteine-aspartic acid protease (CASP8) using HepaRG (AID 2283480). As for the experimental part:
as §1, with “plate.LTEA_HepaRG_CASP8” for “plate.LTEA_HepaRG_CYP24A1”, “Cell proliferation, survival, death.Data” for “NR mediated metabolism.Data”, “LTEA_HepaRG_CASP8” for “LTEA_HepaRG_CYP24A1”, “LTEA_HepaRG_CASP8,” for “LTEA_HepaRG_CYP24A1,”, “protease” for “cyp”, “cysteine protease.” for “xenobiotic metabolism.”
as §2

Read-out in assay [8]: Cytochrome P450 (CYP2B6), CYP2B6 (gene 1555)
As to the kind of experiment: LTEA_HepaRG_CYP2B6: Life Technologies and Expression Analysis (LTEA) Assay for Cytochrome P450 (CYP2B6) using HepaRG (AID 2283481). A digest of the protocol: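 Read-out is CYP2B6 mRNA by TaqMan qRT-PCR, normalized to three housekeeping genes and fitted bidirectionally against 0.5% DMSO baseline. Human HepaRG cells received test chemicals for 48 h, top concentration 100 uM, half-log dilutions.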

Read-out in a further assay: BCL2L11 (gene 10018)
Put plainly: LTEA_HepaRG_BCL2L11: Life Technologies and Expression Analysis (LTEA) Assay for Bcl-2 (BCL2L11) gene using HepaRG (AID 2283473). An outline of the steps: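 HepaRG, 48 h exposure, 8-pt half-log series from 100 uM in 0.5% DMSO, duplicates; qRT-PCR (Fluidigm TaqMan) for BCL2L11, housekeeping-normalized; bidirectional curve fit relative to DMSO baseline.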

Read-out in another assay: Caspase-3 (Homo sapiens) (UniProt P42574)
Put plainly: LTEA_HepaRG_CASP3: Life Technologies and Expression Analysis (LTEA) Assay for cysteine-aspartic acid protease (CASP3) using HepaRG (AID 2283477). An outline of the steps: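 HepaRG, 48 h exposure, 8 conc. (top 100 uM, half-log steps, duplicate), 0.5% DMSO vehicle; qRT-PCR of CASP3 transcript, housekeeping-normalised (ACTB/GAPDH/POLR2A); bidirectional curve fit vs DMSO baseline.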

The list shows a part of the results, in another mix than the full data. Activity calls are given as the source filed them. The calls were made as follows: active = hit-call score of the fitted dose curve at least 0.9, where 1 is the maximum; inactive = score below 0.9.

For the compound `Cc1cc([N+](=O)[O-])cc([N+](=O)[O-])c1O`, the AC50 (in general, the midpoint of the concentration-response curve, whichever way the signal moves) in assay [1] is active: 8.08 µM; in assay [2] it was active: 9.15 µM; in assay [3], active: 88 µM; in assay [6], active: 7.79 µM; in [7] it was active: 12.5 µM; in assay [8] it was active: 6.83 µM. Further, the outcome in assay [4] and in assay [5] was inactive.

Turning to `CN(C(=O)Cc1cccc2occc12)[C@H]1CC[C@@]2(CCCO2)C[C@@H]1N1CCCC1`, the call (in assay [1]; with BCL2L11 (gene 10018); in assay [2]; in [3]; in [4]; with Caspase-3 (Homo sapiens)) was inactive. Moreover, the compound was classed as inactive in assay [5] and in [7]. Besides, the AC50 was active: 50 µM in assay [6] and active: 13.8 µM in assay [8].

On to `O=C1C2CC=CCC2C(=O)N1SC(Cl)(Cl)C(Cl)Cl` (configuration not stated), for which the result (in assay [1]; in assay [3]; in [4]; with Caspase-3 (Homo sapiens); in assay [5]; in [6]) was inactive. Further, in [7], the result was inactive. The AC50 was active: 50 µM with BCL2L11 (gene 10018), active: 9.92 µM in assay [2] and active: 1.52 µM in assay [8].

For `CC(C)OP(=S)(OC(C)C)SCCNS(=O)(=O)c1ccccc1`, the AC50 is active: 9.96 µM in assay [1], active: 24.2 µM in assay [6] and active: 85.3 µM in assay [8]. The outcome (with BCL2L11 (gene 10018); in [3]; in [4]; with Caspase-3 (Homo sapiens); in assay [5]; in [7]) was inactive.
